## Apparent affinities of Ab-91 variants for a coronavirus HR2 peptide

Data: MIT Lincoln Laboratory AlphaSeq set, Engelhart et al. 2022, doi:10.1038/s41597-022-01779-4, as distributed in FLAb.

Target: peptide PDVDLGDISGINAS, taken from heptad repeat 2 (HR2) of SARS-CoV-2 spike.

The variants keep the light chain, the linker and the frameworks of Ab-91 (scFv order VL, a 15-residue (Gly4Ser)3 linker, VH).
VL: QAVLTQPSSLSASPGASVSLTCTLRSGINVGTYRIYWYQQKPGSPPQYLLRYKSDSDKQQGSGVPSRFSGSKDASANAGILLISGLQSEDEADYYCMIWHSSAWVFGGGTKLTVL
VH: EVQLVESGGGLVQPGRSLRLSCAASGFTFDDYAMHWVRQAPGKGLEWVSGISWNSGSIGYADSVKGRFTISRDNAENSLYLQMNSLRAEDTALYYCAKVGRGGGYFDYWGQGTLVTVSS

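The starting antibody came from a phage panning campaign against this peptide. AAYL51 was designed without a model: most single CDR substitutions and a random sample of double and triple ones. The assay is AlphaSeq: two haploid yeast populations carry antibody and antigen on their surface. Mating (16 h, 30 °C) was followed by selection of diploids and sequencing of their barcodes. Read counts were normalised to the haploid input and turned into Kd by a linear fit to BCL2-family pairs of known affinity, for each replicate. The assay was run in three technical replicates.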

Changes read parent residue, position, new residue, counted from the first residue of the VH shown.
All variants listed here change H35 of the VH, counted from its first residue.
Values are apparent Kd, the geometric mean of the replicates that gave a signal; lower means stronger binding.
A pair that was not seen in any replicate is written "nd"; this usually means weak binding, but a binder can also be missed.
Parent in this assay: reference entry 72 nM, copy in this library 7.5 nM.
Nonspecific signal, from three strains lacking the peptide, appeared in 21% of pairings of library AAYL51, centred on 34 µM (5% of these signals below 1.8 µM); values are not corrected for it.

The variant H35D+S55D+D62S gave nd (0 of 3 replicates). With Y32N+H35F+V64Y the result was nd (0 of 3 replicates). The variant H35L+I51Y+G102P gave 1.4 mM (1 of 3 replicates). The variant H35G+R101S gave 18 µM (1 of 3 replicates). The variant H35E+G104H gave nd (0 of 3 replicates). With M34P+H35M the result was 240 µM (2 of 3 replicates).

The variant H35P+I58C showed 310 µM (1 of 3 replicates). With H35G+Y60W+V64P the result was nd (0 of 3 replicates). With G26Y+H35P+V64N the result was 490 µM (2 of 3 replicates). With M34A+H35L the result was 9.6 µM (1 of 3 replicates). The variant Y32L+H35M+G103C gave nd (0 of 3 replicates). For Y32P+H35W+G103R, the assay gave nd (0 of 3 replicates).

For F27H+H35R+G56N, the assay gave 210 µM (2 of 3 replicates). For H35F+R101E+G103M, the assay gave 91 µM (1 of 3 replicates). With H35Y+S55L+G102A the result was nd (0 of 3 replicates). With Y32M+H35K+G59M the result was nd (0 of 3 replicates). The variant H35T+I51L+D107S gave 80 µM (2 of 3 replicates). With H35Q+S57H+R101D the result was 47 µM (2 of 3 replicates).

With H35F+G56A the result was nd (0 of 3 replicates). With H35V+S63F+D107V the result was nd (0 of 3 replicates). For H35P+I51R+V64G, the assay gave nd (0 of 3 replicates). The variant D30P+H35C+S55I gave 56 µM (2 of 3 replicates). The variant F27T+H35A+Y105Q showed nd (0 of 3 replicates). With H35E the result was nd (0 of 3 replicates).

The variant Y32M+H35K+G103S showed nd (0 of 3 replicates). The variant H35I+S63I+G103C gave 6.0 µM (1 of 3 replicates). The variant H35P+V64N+R101C gave nd (0 of 3 replicates). With D31S+H35F+S52L the result was 4.9 µM (1 of 3 replicates). With G26F+H35L the result was nd (0 of 3 replicates). For D31M+H35M+G100H, the assay gave nd (0 of 3 replicates).

The variant T28K+F29I+H35R gave nd (0 of 3 replicates). The variant A33I+H35N+S55I showed nd (0 of 3 replicates). The variant H35L+G56Q+D62V gave nd (0 of 3 replicates). With M34T+H35V+A61Y the result was nd (0 of 3 replicates). With H35P the result was 240 µM (1 of 3 replicates). With H35Y+N54I+I58N the result was nd (0 of 3 replicates).

The variant Y32Q+H35Q+I51W gave nd (0 of 3 replicates). For T28E+Y32S+H35T, the assay gave 150 µM (1 of 3 replicates). For H35Q+W53H+K65E, the assay gave 350 µM (2 of 3 replicates). The variant H35I+F106V showed 120 µM (2 of 3 replicates). The variant H35G+G59V+A61W gave nd (0 of 3 replicates). For H35P+S52I+W53K, the assay gave 100 µM (2 of 3 replicates).

The variant H35T+S52D+S57L gave 62 µM (2 of 3 replicates). With H35A+G56L+G103S the result was nd (0 of 3 replicates).

4 of these entries, quoted again:

changes,Kd (apparent),detected
H35Q+W53H+K65E,350 µM,2/3
H35L+I51Y+G102P,1.4 mM,1/3
H35T+I51L+D107S,80 µM,2/3
H35Y+S55L+G102A,nd,0/3